Test results published in patent US20250387443A1, “ENHANCING ONCOLYTIC V[…] A COMBINATION OF NUCLEAR EXPORT INHIBITOR AND MYXOMA VIRUS […] DEATH PATHWAYS” (Arizona Board of Regents on behalf of Arizona State …, priority 2024, published 2025).

Tested on: CT26 (Mouse colon adenocarcinoma) xenograft
Assay: CT26 tumor model in immunocompetent mice
Conditions: BALB/c mice with CT26 tumors; […] IT virus injections

`O=C(/C=C\n1cnc(-c2cc(C(F)(F)F)cc(C(F)(F)F)c2)n1)NNc1cnccn1` [selinexor] was tested, and the survival was “enhanced survival”.
